Source: patent publication US20250282757A1, “ARYL ETHER-SUBSTITUTED HETEROCYCLIC COMPOUNDS AS GLP1R AGONISTS” (MINDRANK AI LTD., priority 2021, published 2025)

Amino acid sequences for entries named in this document (tags omitted). Residues count along the entry.
UniProt P43220, 24-463 limits assumed: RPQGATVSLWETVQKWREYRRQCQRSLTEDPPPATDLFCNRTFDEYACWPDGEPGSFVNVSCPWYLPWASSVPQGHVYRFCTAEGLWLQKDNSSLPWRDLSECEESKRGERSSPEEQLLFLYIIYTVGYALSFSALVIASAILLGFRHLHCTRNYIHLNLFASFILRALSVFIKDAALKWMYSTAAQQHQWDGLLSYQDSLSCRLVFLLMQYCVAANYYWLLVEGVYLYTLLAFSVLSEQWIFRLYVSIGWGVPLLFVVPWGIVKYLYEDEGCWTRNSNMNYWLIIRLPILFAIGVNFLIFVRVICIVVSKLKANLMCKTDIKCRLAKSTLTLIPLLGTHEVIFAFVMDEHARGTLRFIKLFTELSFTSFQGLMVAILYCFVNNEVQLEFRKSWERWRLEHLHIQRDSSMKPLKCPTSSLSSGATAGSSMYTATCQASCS

Biological target: GLP-1R (Homo sapiens, UniProt P43220)
Assay: Agonist activity on GLP-1R, HTRF cAMP detection in stably transfected GLP-1R/HEK293 cells
Format: cell-based
Conditions: 30 min incubation

CCn1cncc1Cn1c(CN2CCC(Oc3ccc(F)c(OCc4ccc(C#N)cc4F)n3)CC2)nc2ccc(C(=O)O)cc21
EC50: 1.25 nM
